The record followed here is paper PMC9545781 (British Journal of Clinical Pharmacology, 2022).

The nature of this data set: Open-label clinical pharmacokinetic study of oral XBD173 and etifoxine in healthy volunteers (plasma LC-MSMS). Format: in vivo, human. The note with it: Etifoxine multiple dosing (50mg TDS), Day 7 (2-3 hours post dose). The procedure:
This was a single centre, open‐label study enrolling 4 adult healthy volunteers (aged 35–65 y) irrespective of rs6971 genotype. Detailed inclusion and exclusion criteria are shown in the supplementary information. […] As a precaution, therefore, a long washout period was chosen. The first dose was taken at the clinical research facility and the participant was monitored for 4 hours. Subsequent doses were taken at home by the participant. On day 7, the participant returned for a final assessment. […] The PI of the study was Paul M. Matthews (DPhil, FRCP, FMedSci) who is an author on the manuscript.
Plasma samples for pharmacokinetic analysis were obtained on day 1 at 0.5, 1, 2, 3, 4 hours following the first dose. […] Plasma samples were stored at −20°C or lower until analysis. Plasma samples (25 μL) were prepared for analysis by protein precipitation with acetonitrile containing internal standard (tolbutamide; 200 μL) followed by mixing (150 rpm, 15 min) and centrifugation (1500 g, 15 min). The supernatant (50) μL was diluted with water (100 μL) and mixed (100 rpm, 15 min). […] Injection volume was 1 μL.

For `CCNC1=Nc2ccc(Cl)cc2C(C)(c2ccccc2)O1` (centres unmarked) [etifoxine], the Plasma concentration is reported as 13.1 (4.1) ng/mL (Mean (SEM)); 14.0 ng/mL (participant 1); 23.5 ng/mL (participant 2); 11.3 ng/mL (participant 3); 3.7 ng/mL (participant 4).
